Here are results for one molecule from patent US12636270B2, “Levothyroxine liquid formulations” (Fresenius Kabi USA, LLC, priority 2016, dated 2026).

The conditions of this series: 55° C., 4 W; NaI 280 mcg/mL, pH 9.5; 20 mcg/mL, tromethamine 10 mg/mL, 5.4 mg/mL sodium chloride in water. The protocol: Separate samples containing 20 mcg/mL levothyroxine sodium, 10 mg/mL tromethamine, 5.4 mg/mL sodium chloride, and sodium iodide at a concentration of 280 mcg/mL, 140 mcg/mL, or 6 mcg/mL in water were adjusted to various pH levels. 5 mL of each sample was filled into 10 cc flint molded vials, and the vials were stoppered with 20 mm stoppers under nitrogen.
The HPLC conditions were as follows: • Column: ACE Excel 3 C18-PFP, 4.6×150 mm HPLC column • Mobile Phase A: Sodium heptanesulfonate/Acetonitrile/Water/Methanol/H3PO4 (4.0 g/800 mL/1600 mL/1600 mL/4.0 mL) • Mobile Phase B: Sodium heptanesulfonate/Acetonitrile/Water/Methanol/H3PO4 (4.0 g/2000 mL/200 mL/1800 mL/4.0 mL) • Diluent: 0.01 N NaOH • Column temperature: 25° C. • Flow rate: 1.5 mL/min • Injection volume: 80 μL • Autosampler temperature: 5° C. • Detection: UV at 225 nm • Separation mode: Gradient Gradient Program: […]

Consider `N[C@@H](Cc1cc(I)c(Oc2cc(I)c(O)c(I)c2)c(I)c1)C(=O)[O-].[Na+]` [Levothyroxine Na, 4-(4-hydroxy-3,5-diiodophenoxy)-3,5-diiodo-L-phenylalanine sodium], for which the “% Liothyronine” value is 1.63%.
